Measured affinities in a library of Ab-95 light chain variants

Target: peptide PDVDLGDISGINAS, taken from heptad repeat 2 (HR2) of SARS-CoV-2 spike.

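Variants in AAYL52 differ from the parent at up to three CDR positions; double and triple changes were sampled at random. In AlphaSeq, yeast of one mating type display the scFv and yeast of the other type display the target. Pairs that bind mate more often; barcode pairs of the diploids are counted by sequencing. The ratio of observed to expected reads was calibrated, replicate by replicate, on BCL2-family standards whose Kd was known from biolayer interferometry. Mating was done three times.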

Each scFv is VH, a (GGGGS)3 linker, VL, as in the parent Ab-95, and differs from it in the CDRs of the light chain only.
VH: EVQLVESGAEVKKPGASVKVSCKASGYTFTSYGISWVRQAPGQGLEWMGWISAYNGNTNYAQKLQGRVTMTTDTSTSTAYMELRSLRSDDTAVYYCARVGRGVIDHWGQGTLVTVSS
VL: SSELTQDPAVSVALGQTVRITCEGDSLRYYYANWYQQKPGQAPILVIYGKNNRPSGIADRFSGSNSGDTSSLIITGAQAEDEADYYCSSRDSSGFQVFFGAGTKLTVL

Changes read parent residue, position, new residue, counted from the first residue of the VL shown.
All variants listed here change D91 of the VL, counted from its first residue.
Kd is apparent (estimated from mating counts) and averaged on the log scale over replicates with a signal. Smaller is tighter.
An entry "not detected" has no value in the source: the pair was not observed among the diploids in any replicate. This suggests poor binding but is not conclusive.
Background: pairings of library AAYL52 with three empty control strains gave a value in 28% of cases (median 8.2 µM, 5th percentile 800 nM). Values in that range, when seen in few replicates, are hard to tell from nonspecific mating. The control count says in how many pairings with the empty strains this scFv gave a signal.

| changes | Kd (apparent) | seen in | control signals |
|---|---|---|---|
| S89E/D91W/S93P | 3.5 µM | 2/3 | 2/9 |
| R53E/S55T/D91R | 13 µM | 1/3 | 1/9 |
| R28C/R53C/D91E | not detected | 0/3 | 1/9 |
| S89I/D91S/F95R | 1.0 µM | 3/3 | 2/9 |
| A32K/S89M/D91L | 5.4 µM | 3/3 | 2/9 |
| D91I | 870 nM | 1/3 | 1/9 |
| D25G/D91L/S92M | 19 µM | 1/3 | 2/9 |
| S89A/D91I | 74 µM | 1/3 | 4/9 |
| N33I/N51H/D91T | 3.2 µM | 3/3 | 2/9 |
| L27I/Y31M/D91E | 3.2 µM | 3/3 | 4/9 |
| D25M/R28C/D91W | 5.7 µM | 3/3 | 1/9 |
| Y30F/D91Y | 3.2 µM | 3/3 | 3/9 |
| S55I/D91T/S93L | 1.8 µM | 1/3 | 0/9 |
| L27E/S89E/D91R | 190 µM | 1/3 | 0/9 |
| L27H/D91C/G94D | 17 µM | 2/3 | 5/9 |
| R28P/D91Y/S93M | not detected | 0/3 | 1/9 |
| Y30L/N33R/D91S | 9.5 µM | 2/3 | 3/9 |
| D91Y/F95A | 360 nM | 3/3 | 3/9 |
| Y31L/D91L | not detected | 0/3 | 1/9 |
| Y29G/D91P/F95Q | 780 nM | 2/3 | 3/9 |
| K50L/N51D/D91F | 1.8 µM | 3/3 | 6/9 |
| S26T/L27Q/D91V | 89 µM | 1/3 | 2/9 |
| L27H/N52L/D91I | not detected | 0/3 | 0/9 |
| Y30N/D91I | 10 µM | 3/3 | 4/9 |
| G24Q/Y30R/D91C | 15 µM | 1/3 | 2/9 |
| S26D/K50V/D91N | 4.6 µM | 2/3 | 3/9 |
| S88A/D91W | 1.2 µM | 3/3 | 3/9 |
| G49S/D91A | 40 µM | 1/3 | 5/9 |
| Y29E/N51Q/D91K | 6.4 µM | 1/3 | 2/9 |
| S55P/D91A/F95S | 920 nM | 3/3 | 3/9 |
| S88K/D91A | 590 µM | 1/3 | 2/9 |
| S88E/D91H/F98Q | 1.5 µM | 3/3 | 2/9 |
| K50C/P54S/D91A | 4.4 µM | 3/3 | 2/9 |
| Y31C/D91F/Q96F | 8.7 µM | 2/3 | 3/9 |
| N51K/D91S | 5.5 µM | 3/3 | 5/9 |
| A32K/D91A/F98S | 6.3 µM | 3/3 | 6/9 |
| N52Y/D91W | 23 µM | 1/3 | 2/9 |
| N51C/S89E/D91Q | 30 µM | 2/3 | 3/9 |
| D25C/L27F/D91S | 340 µM | 1/3 | 4/9 |
| N52G/D91E | 340 nM | 2/3 | 3/9 |
| S26A/Y30K/D91E | 1.6 µM | 3/3 | 0/9 |
| D91A/F98T | 3.8 µM | 3/3 | 3/9 |
| L27M/D91I/G94S | 28 µM | 1/3 | 0/9 |
| A32S/D91F | 9.0 µM | 2/3 | 4/9 |
| L27A/R53E/D91M | not detected | 0/3 | 2/9 |
| N52C/D91P/G94C | 5.3 µM | 2/3 | 4/9 |

5 of these entries, quoted again:

{"changes": "D25M/R28C/D91W", "Kd (apparent)": "5.7 µM", "seen in": "3/3", "control signals": "1/9"}
{"changes": "Y29G/D91P/F95Q", "Kd (apparent)": "780 nM", "seen in": "2/3", "control signals": "3/9"}
{"changes": "N51K/D91S", "Kd (apparent)": "5.5 µM", "seen in": "3/3", "control signals": "5/9"}
{"changes": "N51C/S89E/D91Q", "Kd (apparent)": "30 µM", "seen in": "2/3", "control signals": "3/9"}
{"changes": "L27M/D91I/G94S", "Kd (apparent)": "28 µM", "seen in": "1/3", "control signals": "0/9"}

Values reported by Engelhart et al. 2022, doi:10.1038/s41597-022-01779-4 (FLAb copy).